The source of these data is patent US20240368275A1 (ELPIS BIOPHARMACEUTICALS, published 2024).

Amino acid sequences for entries named in this document (tags omitted). Residues count along the entry.
UniProt P07766, 23-207 limits assumed: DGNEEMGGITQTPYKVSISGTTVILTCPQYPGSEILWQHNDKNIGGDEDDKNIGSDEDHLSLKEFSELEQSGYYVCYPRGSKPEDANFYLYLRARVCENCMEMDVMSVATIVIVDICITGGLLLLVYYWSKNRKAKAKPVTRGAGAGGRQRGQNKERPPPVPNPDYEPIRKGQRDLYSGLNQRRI

Assay [1] deals with T1, CD3 on Jurkat cells (UniProt P07766 23-207, limits assumed).
T1 construct: whole, on cells; the whole CD3/TCR complex stands on the cells; also called Jurkat CD3
Briefly: flow cytometry on Jurkat cells. How it is done:
The engagement of the antibodies to CD3 has been assessed by FACS. Jurkat cells were plated at 100,000 cells/well in a 96-well plate with 50 μL of full media. Anti-Nectin4/CD3 antibodies were 3-fold serial titrated from 20 nM. 50 μL was added to the cells and incubated for 1 hours at room temperature with shaking. Samples were washed one time with flow buffer. […] Samples were washed once with flow buffer. Samples were stained with 100 uL Zombie Fixable Viability Dyes at 1:800 dilution per well and incubated in dark at room temperature for 30 mins. Samples were spun down at 1300 rpm for 5 minutes and washed once with 200 uL flow buffer. Reconstituted samples in 200 uL of flow buffer and read on Attune NxT cytometer. EC50 values for CD3 binding were calculated using Prism 8.1 software.
For orientation: A flow cytometer gives signals particle by particle.

The target of assay [2] is T2, human Nectin4-HIS tagged recombinant protein (human, UniProt Q96NY8 32-349).
T2 construct: also called hNectin4-HIS; Nectin4 HIS tagged protein; not shown: HIS tag
T2 sequence (looked up): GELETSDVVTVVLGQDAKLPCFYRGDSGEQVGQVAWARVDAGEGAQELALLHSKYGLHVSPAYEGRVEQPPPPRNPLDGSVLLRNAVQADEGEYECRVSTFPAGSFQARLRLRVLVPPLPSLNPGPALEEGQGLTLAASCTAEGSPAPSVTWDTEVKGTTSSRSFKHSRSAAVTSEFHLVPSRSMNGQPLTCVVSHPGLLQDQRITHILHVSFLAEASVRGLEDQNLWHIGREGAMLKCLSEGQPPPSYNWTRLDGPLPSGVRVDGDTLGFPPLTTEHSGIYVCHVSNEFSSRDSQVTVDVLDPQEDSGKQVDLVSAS
Briefly: ELISA, coated Nectin4 HIS tagged protein, bispecific titrated, anti-Human HRP. The protocol: An ELISA assay was developed to determine the EC₅₀ of anti-Nectin4/CD3 bispecific antibodies. Briefly, 384 well plate was immobilized with human CD3E or Nectin4 HIS tagged protein at final concentration of 2 ug/mL in 1×PBS in total volume of 25 uL per well. The plate was incubated overnight at 4° C. followed by blocking with 80 uL of superblock per well for 1 hour. Purified anti-Nectin4/CD3 was 3-fold serial titrated from 100 nM. 25 uL was added to human Nectin4/CD3 immobilized wells and incubated for 1 hour with shaking. The CD3E or Nectin4 binding was detected by adding 25 uL of anti-Human HRP diluted at 1:10000 in 1×PBST. In between each step, the plate was washed 3 times with […] in a plate washer. The plate was then developed with 20 ul of TMB substrate for 5 mins and stopped by adding 20 ul of 2N sulfuric acid. The plate was read at OD450 nm Biotek plate reader and then plotted in Prism 8.1 software to calculate EC50. Table 8 below show the binding activities of the bispecific antibodies to Nectin4 and CD3E via ELISA.
Background: ELISA stands for enzyme-linked immunosorbent assay.

Assay [3] addresses T1, CD3 on Jurkat cells. Briefly: cell-based or functional assay.
The target of assay [4] is T2, human Nectin4-HIS tagged recombinant …. Briefly: SPR Biacore T200, bispecific captured on Protein A chip, hNectin4-HIS injected. The protocol:
Kinetic analysis of exemplary anti-Nectin4/CD3 bispecific antibodies to CD3E and Nectin4 has been assessed by SPR technology with Biacore T200. The assay was run with Biacore T200 control software version 2.0. For each cycle, 1 ug/mL of anti-hNectin4/CD3 antibody was captured for 60 seconds at flow rate of 10 ul/min on flow cell 2 in 1×HBSP buffer on Protein A sensor chip. 2-fold serial diluted CD3E-HIS or hNectin4-HIS tagged protein was injected onto both reference flow cell 1 and anti-Nectin4/CD3 bispecific captured flow cell 2 for 150 seconds at flow rate of 30 ul/mins followed by wash for 300 seconds. The flow cells were then regenerated with Glycine pH2 for 60 seconds at flow rate of 30 ul/mins. 8 concentration points from 100 nM-0 nM (CD3E-HIS) or 300 nM-0 nM (Nectin4-HIS) was assayed per anti-Nectin4 IgG in a 96 well plate. The kinetics of Anti-Nectin4/CD3 bispecific binding to CD3E and Nectin4 proteins was analyzed with Biacore T200 evaluation software version 3.0. The specific binding response unit was derived from subtraction of binding to reference flow cell 1 from antibody captured flow cell 2. Table 10 below listed the kinetics results. ND means not determined. NA means data not available.
Background: In SPR one partner is held on a chip, and binding of the other changes the refractive index at the surface.

The target in assay [5] is T3, full-length human Nectin4 with C-terminal flag and Myc tags on CHO cells (human, UniProt Q96NY8 32-510).
T3 construct: whole, on cells; also called Nectin4/CHO; CHO/Nectin4; not shown: C-terminal flag and Myc tags of pCMV6-Entry vector
T3 sequence (looked up): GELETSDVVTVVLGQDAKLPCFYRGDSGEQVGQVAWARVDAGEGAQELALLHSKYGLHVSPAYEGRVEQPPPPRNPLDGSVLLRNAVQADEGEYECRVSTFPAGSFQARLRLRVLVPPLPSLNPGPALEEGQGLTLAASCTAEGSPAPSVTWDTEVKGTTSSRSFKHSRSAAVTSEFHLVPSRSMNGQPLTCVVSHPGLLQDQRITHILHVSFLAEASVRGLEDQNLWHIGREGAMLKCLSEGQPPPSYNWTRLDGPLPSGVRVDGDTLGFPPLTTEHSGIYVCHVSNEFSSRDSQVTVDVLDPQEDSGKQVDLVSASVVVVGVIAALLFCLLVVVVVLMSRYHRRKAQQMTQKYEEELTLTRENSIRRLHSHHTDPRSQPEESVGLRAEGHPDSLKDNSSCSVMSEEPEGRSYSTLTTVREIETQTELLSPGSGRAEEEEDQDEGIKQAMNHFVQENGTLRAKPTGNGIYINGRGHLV
Briefly: flow cytometry on CHO/Nectin4 cells. The protocol:
The binding activities of the bispecific antibodies to Nectin4 has been assessed by FACS. Nectin4/CHO Nectin4 cells were plated at 100,000 cells/well in a 96-well plate in 50 μL of full media. Cells were rested 1 hour at 37° C. Anti-Nectin4/CD3 was 3-fold serial titrated from 50 nM. 50 μL was added to the cells and incubated for 1 hours with shaking. Samples were washed one time with flow buffer. […] Samples were washed once with flow buffer. Samples were stained with 100 uL Zombie Fixable Viability Dyes (1:800 dilution) per well and incubated in dark at room temperature for 30 mins. Samples were spun down at 1200 rpm for 5 minutes and washed once with 200 uL flow buffer. Reconstituted samples in 200 uL of flow buffer and read on Attune NxT cytometer. EC₅₀ values for Nectin4 Binding were determined using Prism software. Similar method was used to determine the binding activities of antibodies to cancer cell line T47D and HT1376.

B1: EP456/EP370/EP289 anti-Nectin4/CD3 bispecific antibody (bispecific antibody)
chain: not shown
heavy: EVQLVQSGAEVKKPGASVKVSCKASGYTFTGYYMHWVRQAPGQGLEWMGRINPNSGGTNYAQKFQGRVTMTRDTSISTAYMELSGLRSDDTAVYFCARVTYNIGWYIDYWGQGTLVTVSSASTKGPSVFPLAPSSKSTSGGTAALGCLVKDYFPEPVTVSWNSGALTSGVHTFPAVLQSSGLYSLSSVVTVPSSSLGTQTYICNVNHKPSNTKVDKKVEPKSCDKTHTCPPCPAPEAAGGPSVFLFPPKPKDTLMISRTPEVTCVVVDVSHEDPEVKFNWYVDGVEVHNAKTKPREEQYNSTYRVVSVLTVLHQDWLNGKEYKCKVSNKALGAPIEKTISKAKGQPREPQVCTLPPSRDELTKNQVSLSCAVKGFYPSDIAVEWESNGQPENNYKTTPPVLDSDGSFKLVSKLTVDKSRWQQGNVFSCSVMHEALHNHYTQKSLSLSPGK
light: QAVVTQPPSVSVAPGKTATITCGGNNIGSKGVHWYQQKPGQAPVLVIYYDTDRPSGIPERLSGSNSGNTATLTISRVEAGDEADYYCQVWDSSSDHPVFGGGTKLTVLGQPKANPTVTLFPPSSEELQANKATLVCLISDFYPGAVTVAWKADGSPVKAGVETTKPSKQSNNKYAASSYLSLTPEQWKSHRSYSCQVTHEGSTVEKTVAPTECS
As usually defined, the EC50 is the concentration at which the effect is half-maximal. One may read the Kd as the constant that tells how readily two partners part at equilibrium. As a reminder, the koff is a measure of how fast the partners let go of each other. By kon is commonly meant the second-order rate constant of association. Take B1: the half-maximal effective concentration (EC50) in assay [1] came to 1.03 nM; in assay [2] it was 0.014 nM; in assay [5] it was 0.253 nM. For the same molecule, the “NFAT reporter EC50” value in assay [3] is 0.102 nM. Also, the Kd in assay [4] came out at 4.23 nM. Moreover, the koff in assay [4] was 0.000412 s⁻¹. The on-rate constant (kon) in assay [4] amounted to 97400 M⁻¹ s⁻¹.
